Experimental data reported in patent US10202345B2, “Substituted azaspiro(4.5)decane derivatives” (priority 2014, dated 2019).

Sequences of proteins named here, by UniProt entry; tags and fusion partners are left off.
UniProt P35372, whole entry: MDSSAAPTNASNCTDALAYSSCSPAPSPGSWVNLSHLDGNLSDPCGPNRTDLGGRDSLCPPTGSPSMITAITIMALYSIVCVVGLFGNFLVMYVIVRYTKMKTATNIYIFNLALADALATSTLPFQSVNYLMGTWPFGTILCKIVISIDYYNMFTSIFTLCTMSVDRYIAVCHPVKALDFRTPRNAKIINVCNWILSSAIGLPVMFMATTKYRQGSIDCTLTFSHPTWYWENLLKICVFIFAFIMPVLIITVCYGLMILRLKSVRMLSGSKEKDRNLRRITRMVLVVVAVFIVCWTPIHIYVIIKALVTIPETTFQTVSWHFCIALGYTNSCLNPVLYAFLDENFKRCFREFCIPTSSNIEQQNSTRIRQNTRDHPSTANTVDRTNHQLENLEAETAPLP
UniProt P41146, whole entry: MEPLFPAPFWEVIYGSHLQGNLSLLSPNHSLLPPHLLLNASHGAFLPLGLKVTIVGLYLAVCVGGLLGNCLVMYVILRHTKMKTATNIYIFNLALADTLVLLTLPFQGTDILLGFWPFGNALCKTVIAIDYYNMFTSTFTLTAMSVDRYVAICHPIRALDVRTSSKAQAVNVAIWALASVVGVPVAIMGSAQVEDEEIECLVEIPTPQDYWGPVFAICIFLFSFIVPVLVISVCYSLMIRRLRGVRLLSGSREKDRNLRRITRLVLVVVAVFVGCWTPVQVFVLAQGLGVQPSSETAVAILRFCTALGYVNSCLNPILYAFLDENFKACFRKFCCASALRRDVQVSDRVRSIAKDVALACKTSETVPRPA

What was measured:
rats [1] = assay: Analgesia in the tail flick (focal ray) test in rats, intravenous administration
human μ opiate receptor = human μ opiate receptor (Homo sapiens, UniProt P35372); assay: μ opiate receptor binding assay with [3H]-naloxone (WGA-SPA beads)
ORL1 receptor = ORL1 receptor (Homo sapiens, UniProt P41146); assay: ORL1 receptor binding assay with 3H-nociceptin/orphanin FQ (WGA-SPA beads)
rats [2] = assay: Chung model: mononeuropathy pain following spinal nerve ligation (mechanical allodynia, von Frey)

SMILES: CN(C)C1(c2cccs2)CCC2(CC1)CC(=O)N(CCC1COC1)C2 (single isomer, unassigned) [142]
- Tail flick rat, i.v. ED50 rat [μg/kg] (rats [1]): 126 µg/kg
- Ki (human μ opiate receptor; read-out: Ki (μ) mean [μm], mean): 7.4 nM
- % inhibition (μ) [1 μM] (human μ opiate receptor; test concentration 1 μM, 1 µM): 94%
- Ki (ORL1 receptor; read-out: Ki (ORL1) mean, mean): 5.75 nM
- % inhibition (ORL1) [1 μM] (ORL1 receptor; test concentration 1 μM, 1 µM): 85%
- SNL rat, i.v. ED50 rat [μg/kg] (rats [2]): 96 µg/kg
